Data taken from PubChem BioAssay (NCATS).
Where “and” joins values, the source holds several entries; their conditions need not be identical. Equal entries are not always repeated. These results got no clear call from the source, so the numbers are uncertain. Unless noted, calls follow the shape of the dose curve; as a rule, active = well fitted curve in the direction sought with a large enough effect; inconclusive = small, poorly fitted or top-dose-only effect, or another doubt; inactive = no such curve, though single readings can be large; an effect the other way counts as inactive or inconclusive.

Amino acid sequences for entries named in this document (tags omitted). A change or cut given only in a name is not applied to a line headed by its entry.
UniProt P02791: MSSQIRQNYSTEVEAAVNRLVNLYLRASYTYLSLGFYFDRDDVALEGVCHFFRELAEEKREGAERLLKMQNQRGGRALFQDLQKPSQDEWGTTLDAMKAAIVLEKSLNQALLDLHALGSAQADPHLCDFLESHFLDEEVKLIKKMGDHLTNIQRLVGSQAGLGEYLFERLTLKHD
UniProt O15648: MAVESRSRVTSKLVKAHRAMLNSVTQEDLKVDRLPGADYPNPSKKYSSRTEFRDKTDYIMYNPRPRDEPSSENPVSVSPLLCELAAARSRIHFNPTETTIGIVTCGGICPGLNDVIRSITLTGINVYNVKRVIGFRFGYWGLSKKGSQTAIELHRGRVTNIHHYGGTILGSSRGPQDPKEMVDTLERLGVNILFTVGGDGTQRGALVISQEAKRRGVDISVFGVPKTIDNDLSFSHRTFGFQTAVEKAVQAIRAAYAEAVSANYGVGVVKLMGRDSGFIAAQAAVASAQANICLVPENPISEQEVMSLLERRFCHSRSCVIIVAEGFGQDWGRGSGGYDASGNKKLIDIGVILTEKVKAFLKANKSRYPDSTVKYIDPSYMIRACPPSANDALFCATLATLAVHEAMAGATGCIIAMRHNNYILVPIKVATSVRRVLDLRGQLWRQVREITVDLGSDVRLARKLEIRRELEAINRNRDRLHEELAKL
UniProt P51570: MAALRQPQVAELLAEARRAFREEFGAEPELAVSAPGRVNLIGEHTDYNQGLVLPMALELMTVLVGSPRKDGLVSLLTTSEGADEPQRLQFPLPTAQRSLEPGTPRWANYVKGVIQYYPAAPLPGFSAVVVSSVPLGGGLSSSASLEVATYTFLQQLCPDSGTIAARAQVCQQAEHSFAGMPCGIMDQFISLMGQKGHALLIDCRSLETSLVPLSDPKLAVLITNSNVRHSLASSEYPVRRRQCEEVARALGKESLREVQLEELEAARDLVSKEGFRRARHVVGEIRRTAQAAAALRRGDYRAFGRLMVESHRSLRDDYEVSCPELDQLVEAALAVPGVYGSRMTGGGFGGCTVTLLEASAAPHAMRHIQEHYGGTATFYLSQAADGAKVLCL
UniProt P15289: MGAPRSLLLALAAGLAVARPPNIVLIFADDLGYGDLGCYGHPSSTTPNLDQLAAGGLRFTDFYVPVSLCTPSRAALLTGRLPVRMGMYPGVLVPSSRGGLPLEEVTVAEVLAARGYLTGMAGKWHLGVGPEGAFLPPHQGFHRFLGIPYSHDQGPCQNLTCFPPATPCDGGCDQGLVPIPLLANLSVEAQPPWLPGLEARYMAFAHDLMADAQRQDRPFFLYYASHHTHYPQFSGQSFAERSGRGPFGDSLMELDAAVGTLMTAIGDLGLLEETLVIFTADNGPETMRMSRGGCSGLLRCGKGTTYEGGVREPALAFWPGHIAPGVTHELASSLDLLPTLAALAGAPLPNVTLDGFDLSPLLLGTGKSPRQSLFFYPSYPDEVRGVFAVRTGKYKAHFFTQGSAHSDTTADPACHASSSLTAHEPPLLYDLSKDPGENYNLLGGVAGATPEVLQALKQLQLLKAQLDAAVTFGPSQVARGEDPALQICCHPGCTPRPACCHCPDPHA

Experiments:
[1] = qHTS Assay for Modulators of Human Peripheral Myelin Protein 22 (PMP22) Expression/Activity (AID 1967; active = well fitted curve in the direction sought with a large enough effect in the signal ratio; inconclusive = small, poorly fitted or top-dose-only effect, or effect the other way, or a change in a side signal; inactive = no such curve, though single readings can be large or run the other way; the % refers to the signal ratio; also: potency is read from the fitted curve at half-maximal effect); conditions: Cell-based PMP22 reporter, dual-color luciferase ratio, mouse Pmp22 promoter in mouse Schwann cells; activity change (ratio): at 115 µM (top of the series), 0% = compound-free control cells
Procedure, shortened: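 Readout is the corrected green/red luminescence ratio after 24 h compound exposure, normalised to untreated cells (0%). Engineered MSC80 mouse Schwann cells express green luciferase from the mouse Pmp22 promoter and red luciferase from EF-alpha as internal control.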

[2] = molecular target: Ferritin light chain (Equus caballus) (UniProt P02791); test: qHTS Validation Assay for Identification of Novel General Anesthetics (AID 2323); conditions: horse apoferritin, anesthetic-site fluorescent probe displacement; also: potency is read from the fitted curve at half-maximal effect
Procedure, shortened: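 Competitive displacement of the profluorescent anesthetic 1-AMA (50% saturated, PBS) from 10 uM apoferritin, 10 min, room temperature. Activity is normalized 380/535 nm fluorescence; concentration-response fitted with a four-parameter Hill equation.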

[3] = High Content Imaging Cell-Based qHTS for Inhibitors of the mTORC1 Signaling Pathway in MEF Cells (AID 2667); also: potency is read from the fitted curve at half-maximal effect
Procedure, shortened: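 Tsc2-/-, p53-/- MEFs stably re-expressing WT Tsc2, grown in DMEM + 10% FBS, were treated with compounds for 24 hrs at 37 degree Celsius, fixed, and stained with Alexa-488 phospho-rpS6 Ser235/236 antibody plus Hoechst; results given as % positive cells.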

[4] = Cytometry Cell-Based qHTS for Inhibitors of the mTORC1 Signaling Pathway in MEF cells (AID 2668); conditions: mTORC1 pathway readout; also: potency is read from the fitted curve at half-maximal effect
Procedure, shortened: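 Phospho-rpS6 (Ser235/236) immunofluorescence over PI signal, scored as % positive cells using thresholds from 7.5 nM rapamycin and DMSO wells, after 24 h compound exposure of WT-Tsc2-rescued Tsc2-/-, p53-/- MEFs. PI cell count recorded for viability.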

[5] = molecular target: ATP-dependent 6-phosphofructokinase (Trypanosoma brucei brucei) (UniProt O15648); test: qHTS Validation Assay to Find Inhibitors of T. brucei phosphofructokinase (AID 485368); also: potency is read from the fitted curve at half-maximal effect; conditions: T. brucei PFK enzyme assay, qHTS 7-point titration
[6] = molecular target: Galactokinase (Homo sapiens) (UniProt P51570); test: qHTS Validation Assay for Inhibitors of Human Galactokinase (GALK) (AID 493189); conditions: purified human GALK enzyme activity, qHTS 7-point titration; at 57.5 µM (top of the series); also: 0% is about no effect
Procedure, shortened: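 Inhibition was measured as remaining ATP, detected by luciferase luminescence after a 1 h room-temperature reaction. Final conditions: 5 nM GALK, 100 uM galactose, 35 uM ATP, pH 8.0 HEPES buffer.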

[7] = molecular target: Arylsulfatase A (Homo sapiens) (UniProt P15289); test: qHTS screen for enhancers of Arylsulfatase A (ASA1): LOPAC Validation Assay (AID 720538); conditions: ASA enzyme activity, LOPAC qHTS enhancer assay; also: potency is read from the fitted curve at half-maximal effect
Procedure, shortened: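 Enhancer assay in patient-derived MLD fibroblasts carrying ASA-I179S: 48 h compound exposure at 37 C, then 14 h room-temperature pNCS turnover (0.5 mM final) in lysis buffer. Read by fluorescence at 525/598 nm after NaOH stop.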

[8] = qHTS Assay for Identifying Gametocytocidal Compounds (AID 743244); also: potency is read from the fitted curve at half-maximal effect; conditions: P. falciparum 3D7 stage III-V gametocytes, alamarBlue, 72 h
[9] = NFAT Signaling Pathway (AID 444; active = well fitted curve in either direction with a large enough effect, not every such curve was filed as active; inconclusive = small, poorly fitted or top-dose-only effect, or another doubt;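 also: carbachol stimulus at about its EC50 of 1 µM final; % is scaled to controls: 0 for no effect and ±100 for the full control effect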); conditions: Jurkat NFAT-bla M1, carbachol, beta-lactamase ratio, 5 h; at 38 µM (top of the series) unless noted

CN(C(=O)Cc1ccc(Cl)c(Cl)c1)[C@H]1CCCC[C@@H]1N1CCCC1
inconclusive: Potency [1] 67.5 µM | Potency [2] 44.7 µM | Potency [3] 14.7 µM | Potency [4] 26.1 µM | Potency [5] 47.8 µM and 42.6 µM | activity change, negative = inhibition [6] 27.9% | Potency [7] 6.75 µM | Potency [8] 1.78 µM

Cc1cccc(OCC(=O)OC2CN3CCC2CC3)c1 (stereo not given)
inconclusive: activity change, negative = inhibition [9] -62.6% [at 17.2 µM]

Cc1ccc(OCC(=O)OC2CN3CCC2CC3)cc1 (stereo not given)
inconclusive: activity change, negative = inhibition [9] -72.3% [at 17.2 µM]
